The values below come from BindingDB's records for doi:10.1021/jm9811256 (Academy of Sciences of The Czech Republic, 1999).

Experiment [1] is described as follows: Inhibitory activity against varicella zoster virus thymidine kinase (VZV TK+) YS strain.
The nature of experiment [2]: Inhibitory activity against varicella zoster virus thymidine kinase (VZV TK+) OKA strain.

What is called EC50 is the concentration needed to bring the measured effect to its halfway point. A low value points to an effect from little substance. In the case of `Nc1ncnc2c1ncn2CCOCP(=O)(O)O` [9-[2-phosphonomethoxyethyl]adenine], the EC50 came to 19.7 µM in experiment [1] and 31.1 µM in experiment [2].
